Here are results for two compounds from article PMC4941945 (Current protocols in pharmacology / editorial board, S.J. …, 2015).

Sequences of proteins named here, by UniProt entry; tags and fusion partners are left off. A change or cut given only in a name is not applied to a line headed by its entry.
UniProt Q60492, whole entry: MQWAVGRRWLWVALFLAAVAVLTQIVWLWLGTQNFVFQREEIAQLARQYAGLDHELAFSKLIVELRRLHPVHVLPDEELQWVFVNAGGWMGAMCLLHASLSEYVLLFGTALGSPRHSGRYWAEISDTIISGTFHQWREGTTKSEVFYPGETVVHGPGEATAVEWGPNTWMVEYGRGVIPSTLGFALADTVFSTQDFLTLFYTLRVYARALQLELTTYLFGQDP

Test [1] addresses sigma-1 receptor (S1R). Particulars: read-out: KI S1R; ref 4 Pal A et al. (2007) Molecular Pharmacology 72:921-933; cited from earlier work.
For test [2], the target named is Sigma-1 receptor (S1R) (Cavia porcellus, UniProt Q60492). Description: Saturation binding of [3H]-. The note with it: 37°C, tissue membranes.

Turning to `CC(Cc1ccc(C(C)(C)C)cc1)CN1C[C@@H](C)O[C@@H](C)C1` (some centres unmarked) [Fenpropimorph], the inhibitory constant (Ki) in test [1] is 9.3 nM.

Turning to `CC(C)=CCN1CC[C@]2(C)c3cc(O)ccc3C[C@H]1[C@H]2C` [[^3H]-(+)-pentazocine], in test [2], the “time to reach equilibrium” value is reported as “at least 90 min”.

As usually defined, the Ki is the equilibrium dissociation constant of an inhibitor or competing ligand from its target.
